BigSolDB 2.1

C=C[C@]1(C)C[C@@H](OC(=O)CSC(C)(C)CNC(=O)[C@H](N)C(C)C)[C@]2(C)[C@H](C)CC[C@]3(CCC(=O)[C@H]32)[C@@H](C)[C@@H]1O.O=C(O)C(O)C(O)C(=O)O
solubility (mole fraction)
Details | in acetone | in ethanol | in isopropanol | in n-butanol | in water
278.15 K | 0.000752 | 0.00132 | 0.000527 | 0.000913 | 0.000131
283.15 K | 0.000818 | 0.00208 | 0.000599 | 0.00102 | 0.000136
288.15 K | 0.000921 | 0.00269 | 0.000727 | 0.00114 | 0.000143
293.15 K | 0.00116 | 0.0031 | 0.000847 | 0.00129 | 0.000148
298.15 K | 0.00137 | 0.00373 | 0.00106 | 0.00141 | 0.000154
303.15 K | 0.00172 | 0.0048 | 0.00141 | 0.00162 | 0.000161
308.15 K | 0.00228 | 0.0059 | 0.00163 | 0.00184 | 0.000166
313.15 K | 0.00304 | 0.00766 | 0.00207 | 0.00225 | 0.000171
318.15 K | 0.0041 | 0.0103 | 0.0027 | – | 0.000173
323.15 K | – | – | 0.00348 | – | 0.000175
328.15 K | – | – | 0.00442 | – | –
333.15 K | – | – | 0.00606 | – | –
